# Earlier results as cited in US20160186266A1, “MOLECULAR PROFILING FOR PERSONALIZED MEDICINE” (CARIS LIFE SCIENCES, INC., priority 2009, published 2016).
# Test system: HER2 positive breast cancers
# Settings: unselected HER2+ patients
substance,measurement,value
trastuzumab: monoclonal antibody that interferes with the HER2/neu receptor,percentage of HER2 positive breast cancers that respond to treatment,about 30%
